This passage reports Ki results from ChEMBL document CHEMBL1926659, “CK2α and CK2α' subunits differ in their sensitivity to 4,5,6,7-tetrabromo- and 4,5,6,7-tetraiodo-1H-benzimidazole derivatives” (Eur J Med Chem, 2012).

Sequences of proteins named here, by UniProt entry; tags and fusion partners are left off.
UniProt P19784, whole entry: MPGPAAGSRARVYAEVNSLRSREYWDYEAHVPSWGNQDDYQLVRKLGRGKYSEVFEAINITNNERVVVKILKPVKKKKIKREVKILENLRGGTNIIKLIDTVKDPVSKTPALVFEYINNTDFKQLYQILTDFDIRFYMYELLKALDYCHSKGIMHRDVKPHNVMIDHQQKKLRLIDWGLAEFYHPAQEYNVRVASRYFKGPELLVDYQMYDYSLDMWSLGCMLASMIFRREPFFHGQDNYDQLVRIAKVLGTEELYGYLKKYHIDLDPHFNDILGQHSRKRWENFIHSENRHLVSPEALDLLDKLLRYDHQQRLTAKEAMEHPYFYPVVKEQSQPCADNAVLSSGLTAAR
UniProt P68400, whole entry: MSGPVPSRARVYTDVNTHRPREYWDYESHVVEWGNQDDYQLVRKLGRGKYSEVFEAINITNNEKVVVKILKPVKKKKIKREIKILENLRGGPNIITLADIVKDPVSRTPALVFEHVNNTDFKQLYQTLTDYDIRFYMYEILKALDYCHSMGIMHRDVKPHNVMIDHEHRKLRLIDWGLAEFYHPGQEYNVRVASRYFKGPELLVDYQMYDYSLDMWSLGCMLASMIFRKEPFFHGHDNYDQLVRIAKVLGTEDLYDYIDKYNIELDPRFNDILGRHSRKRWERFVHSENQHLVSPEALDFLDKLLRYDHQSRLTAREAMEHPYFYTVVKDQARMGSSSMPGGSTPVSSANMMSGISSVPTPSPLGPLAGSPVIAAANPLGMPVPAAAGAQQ

The term Ki denotes the dissociation constant of the complex between target and ligand, obtained from inhibition or displacement.

Test [1] concerns the target T1, Casein kinase II subunit alpha' (Homo sapiens, UniProt P19784). As to the kind of experiment: Inhibition of human CK2 alpha' catalytic subunit expressed in Escherichia coli BL21 (DE3) assessed as [33P]gamma-ATP incorporation into P2B substrate after 15 mins by scintillation counting.
The target in test [2] is T1, Casein kinase II subunit alpha'. As to the kind of experiment: Inhibition of human CK2 alpha' catalytic subunit expressed in Escherichia coli […] (DE3) assessed as [33P]gamma-ATP incorporation into RRRADDSDDDDD substrate after 15 mins by scintillation counting.
Test [3] concerns the target T2, Casein kinase II subunit alpha (Homo sapiens, UniProt P68400). As to the kind of experiment: Inhibition of human CK2 alpha catalytic subunit expressed in Escherichia coli BL21 (DE3) assessed as [32P]gamma-ATP incorporation into P2B substrate after 15 mins by scintillation counting.
The target in test [4] is T2, Casein kinase II subunit alpha. As to the kind of experiment: Inhibition of human CK2 alpha catalytic subunit expressed in Escherichia coli BL21 (DE3) assessed as [32P]gamma-ATP incorporation into RRRADDSDDDDD substrate after 15 mins by scintillation counting.

Structures are written as SMILES.

In the case of `CN(C)c1nc2c(Br)c(Br)c(Br)c(Br)c2[nH]1`, the Ki in test [1] amounted to 112 nM; in test [2], 133 nM; in test [3], 97 nM; in test [4], 139 nM.
